From patent US5254569A, “(Amidomethyl)nitrogen heterocyclic analgesics” (The Du Pont Merck Pharmaceutical Company, priority 1991, dated 1993)

Sequences of proteins named here, by UniProt entry; tags and fusion partners are left off. Residues count along the entry.
UniProt A0A286XTF2, 1-366: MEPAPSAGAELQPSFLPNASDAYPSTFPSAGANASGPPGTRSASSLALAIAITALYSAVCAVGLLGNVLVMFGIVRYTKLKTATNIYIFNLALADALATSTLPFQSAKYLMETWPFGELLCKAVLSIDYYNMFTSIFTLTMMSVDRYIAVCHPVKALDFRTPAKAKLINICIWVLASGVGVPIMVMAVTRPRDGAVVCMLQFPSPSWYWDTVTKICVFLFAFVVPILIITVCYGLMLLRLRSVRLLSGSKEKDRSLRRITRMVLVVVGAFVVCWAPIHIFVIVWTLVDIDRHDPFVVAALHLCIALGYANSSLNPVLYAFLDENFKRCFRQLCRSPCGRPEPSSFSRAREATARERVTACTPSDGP

Biological target: T1, delta opioid receptor (Cavia porcellus, UniProt A0A286XTF2)
T1 construct: Whole brains were homogenized (20 sec) in 10 vol (wt/vol) of ice-cold 0.34 M sucrose; tissue Charles River (animals); host or cells: guinea pig whole-brain membranes
Type: binding, guinea pig
Conditions: read-out: apparent Kd

[D-Ala^2 -D-Leu^5 ]enkephalin [[3H]DADLE]
Kd: 0.64 nM
